# Data as given in PubChem BioAssay AID602274 (Sanford-Burnham Center for Chemical Genomics, 2012).
# This is a selection; strong and weak results do not stand in their true shares. Active and inactive are the calls of the source. Rule as the data show it: active = survival enhancement above about 18%; inactive = the rest.
# Assay: compounds raising survival of dissociated human iPSCs – cell-based, ATPlite luminescence, primary screen (AID 602274);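 also: cells exposed to compounds for 16 hours before the ATP read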
# Details: hiPSC single-cell survival, at 20 µM, hits give high values, 100% = ROCK inhibitor wells, 0% = DMSO
row,SMILES,survival enhancement
1,O=c1[nH]c2ccccc2n1C1CCN(C(c2cccs2)c2nnnn2C2CCCC2)CC1 (stereo unspecified),inactive: 1.3%
2,O=C(OC1CN2CCC1CC2)C1c2ccccc2C=Cc2ccccc21 (stereo unspecified),inactive: 3.1%
3,CCCCn1nnnc1C(c1cccc(OC)c1OC)N1CCC(n2c(=O)[nH]c3ccccc32)CC1 (stereo unspecified),inactive: 0.7%
4,COc1cccc(C(c2nnnn2C(C)(C)C)N2CCC(n3c(=O)[nH]c4ccccc43)CC2)c1OC (stereo unspecified),inactive: 0.1%
5,CCOC(=O)N1CCC(Nc2ccc(C)cc2)CC1,inactive: -0.1%
6,N/C(=N\O)c1c(N)no[n+]1[O-],inactive: 0.3%
7,O=c1[nH]c2ccccc2n1C1CCN(C(c2cccs2)c2nnnn2C2CCCCC2)CC1 (stereo unspecified),inactive: -0.4%
8,O=c1[nH]c2ccccc2n1C1CCN(C(c2ccnc3ccccc23)c2nnnn2C2CCCC2)CC1 (stereo unspecified),inactive: -0.7%
9,COc1ccc(C(=O)NCC2(N3CCOCC3)CCCCC2)cc1OC,inactive: -1.3%
10,COc1cc(C(=O)NCC2(N3CCOCC3)CCCCC2)cc(OC)c1C,inactive: 0.1%
11,CCCCn1nnnc1C(c1ccccc1)N1CCC(n2c(=O)[nH]c3ccccc32)CC1 (stereo unspecified),inactive: -0.3%
12,O=C(NCC1(N2CCOCC2)CCCCC1)c1cc(Br)ccc1Cl,inactive: -0.1%
13,CC(C)(C)n1nnnc1C(c1cccc2ccccc12)N1CCC(n2c(=O)[nH]c3ccccc32)CC1 (stereo unspecified),inactive: 0.7%
14,CN(C)C1(CNC(=O)c2cccc(C#N)c2)CCCCC1,inactive: 0.6%
15,CCCN1CCC(Nc2cc(OC)cc(OC)c2)CC1,inactive: -0.4%
16,O=c1[nH]c2ccccc2n1C1CCN(C(c2ccccc2)c2nnnn2C2CCCC2)CC1 (stereo unspecified),inactive: -1.2%
17,Cc1cc(N(CCCl)CCCl)ccc1C=O,inactive: 0.6%
18,c1ccc(CN2CCC(Nc3ccccc3)CC2)cc1,inactive: -0.7%
19,N#Cc1ccc(C(=O)NCC2(N3CCCCC3)CCCCC2)cc1,inactive: 0.1%
20,CC(C)(C)OC(=O)N1CCC(N(C(=O)c2ccccc2)c2ccc(Cl)cc2)CC1,inactive: 0.2%
21,Cn1c(=O)[nH]cc(N(CCCl)CCCl)c1=O,inactive: -2.3%

row,SMILES,survival enhancement
1,CN(C)c1ccc(C(=O)NCC2(N3CCCCC3)CCCCC2)cc1,inactive: 0.2%
2,O=C(NCC1(N2CCCCC2)CCCCC1)c1ccco1,inactive: 0.7%
3,CC(C)(C)n1nnnc1C(c1ccnc2ccccc12)N1CCC(n2c(=O)[nH]c3ccccc32)CC1 (stereo unspecified),inactive: -0.9%
4,COc1ccc(C(c2nnnn2C2CCCCC2)N2CCC(n3c(=O)[nH]c4ccccc43)CC2)cc1 (stereo unspecified),inactive: -0.8%
5,CCN1CCC(Nc2cccc(F)c2)CC1,inactive: -2.8%
6,Cc1ccccc1NC1(C#N)CCN(Cc2ccccc2)CC1,inactive: 2.2%
7,Fc1ccccc1NC1CCN(Cc2ccccc2)CC1,inactive: -0.4%
8,Cc1ccc(C(=O)NCC2(N3CCCCC3)CCCCC2)o1,inactive: -0.3%
9,Cc1ccc(NC2(C#N)CCN(Cc3ccccc3)CC2)cc1,inactive: -1.2%
10,CCC(c1nnnn1C1CCCCC1)N1CCC(n2c(=O)[nH]c3ccccc32)CC1 (stereo unspecified),inactive: 1.7%
11,CC(=O)N(c1ccccc1)C1CCNCC1,inactive: -3.5%
12,COc1cccc(C(c2nnnn2C2CCCCC2)N2CCC(n3c(=O)[nH]c4ccccc43)CC2)c1OC (stereo unspecified),inactive: -0.5%
13,O=c1[nH]c2ccccc2n1C1CCN(C(c2ccnc3ccccc23)c2nnnn2C2CCCCC2)CC1 (stereo unspecified),inactive: 0.2%
14,COc1cc(OC)cc(C(=O)NCC2(N3CCCCC3)CCCCC2)c1,inactive: -0.5%
15,CN1CCC(Nc2ccc(Cl)cc2)CC1,inactive: 0.7%
16,COc1cccc(C(=O)N(c2cc(C)cc(C)c2)C2CCN(C(=O)OC(C)(C)C)CC2)c1,inactive: -0.2%
17,COc1cc(OC)cc(C(=O)NCC2(N3CCOCC3)CCCCC2)c1,inactive: -0.6%
18,COc1cccc(C(c2nnnn2C2CCCC2)N2CCC(n3c(=O)[nH]c4ccccc43)CC2)c1OC (stereo unspecified),inactive: 10.6%
19,CCC(CO)(C(=O)OC1CN2CCC1CC2)c1ccccc1 (stereo unspecified),inactive: -2.3%
20,NN(c1ccccc1)C1CCN(CCc2ccccc2)CC1,inactive: -0.8%
21,O=C(O)C1(Nc2ccccc2)CCN(Cc2ccccc2)CC1,inactive: 1.2%

row,SMILES,survival enhancement
1,CC(C)(C)OC(=O)N1CCC(Nc2ccccc2)CC1,inactive: -0.4%
2,CCCOc1ccc(C(=O)NCC2(N(C)C)CCCCC2)cc1,inactive: -0.4%
3,O=c1[nH]c2ccccc2n1C1CCN(C(c2cc3ccccc3o2)c2nnnn2C2CCCC2)CC1 (stereo unspecified),inactive: 5.7%
4,CN1CCC(Nc2ccc(F)c(Cl)c2)CC1,inactive: -0.3%
5,CCOc1ncccc1C(=O)NCC1(N2CCOCC2)CCCCC1,inactive: -3.2%
6,COc1ccc(Cl)cc1C(=O)NCC1(N2CCOCC2)CCCCC1,inactive: -0.4%
7,O=c1[nH]c2ccccc2n1C1CCN(C(c2cc3ccccc3o2)c2nnnn2C2CCCCC2)CC1 (stereo unspecified),inactive: 2.3%
8,O=C(OC1CN2CCC1CC2)C1c2ccccc2Oc2ccccc21 (stereo unspecified),inactive: 2.6%
9,O=C(NCC1(N2CCCCC2)CCCCC1)c1ccc(Cl)s1,inactive: -3%
10,N#CC1(Nc2ccccc2)CCN(Cc2ccccc2)CC1,inactive: -0.6%
11,CCCCn1nnnc1C(c1ccc(OC)cc1)N1CCC(n2c(=O)[nH]c3ccccc32)CC1 (stereo unspecified),inactive: -1.9%
12,CCOC(=O)N1CCC(Nc2ccc(OC)cc2)CC1,inactive: 1.3%
13,Cc1cc(C)cc(N(C(=O)c2ccccc2)C2CCN(C(=O)OC(C)(C)C)CC2)c1,inactive: 0.9%
14,O=c1[nH]c2ccccc2n1C1CCN(C(c2ccccc2OC(F)(F)F)c2nnnn2C2CCCCC2)CC1 (stereo unspecified),inactive: 1.2%
15,O=C(NCC1(N2CCCCC2)CCCCC1)c1ccc(Cl)nc1,inactive: -0.1%
16,O=C(NCC1(N2CCOCC2)CCCCC1)c1cc2ccccc2o1,inactive: 5.7%
17,Cc1cccc(NC2(C#N)CCN(Cc3ccccc3)CC2)c1,inactive: -1.9%
18,CSc1ccccc1C(=O)NCC1(N2CCCCC2)CCCCC1,inactive: 0.5%
19,CCC(c1nnnn1C1CCCC1)N1CCC(n2c(=O)[nH]c3ccccc32)CC1 (stereo unspecified),inactive: -1.9%
